Reference: patent publication US20240158370A1, “CK1 alpha AND DUAL CK1 alpha / GSPT1 DEGRADING COMPOUNDS” (Innovo Therapeutics, Inc., priority 2022, published 2024)

Amino acid sequences for entries named in this document (tags omitted).
UniProt P48729, whole entry: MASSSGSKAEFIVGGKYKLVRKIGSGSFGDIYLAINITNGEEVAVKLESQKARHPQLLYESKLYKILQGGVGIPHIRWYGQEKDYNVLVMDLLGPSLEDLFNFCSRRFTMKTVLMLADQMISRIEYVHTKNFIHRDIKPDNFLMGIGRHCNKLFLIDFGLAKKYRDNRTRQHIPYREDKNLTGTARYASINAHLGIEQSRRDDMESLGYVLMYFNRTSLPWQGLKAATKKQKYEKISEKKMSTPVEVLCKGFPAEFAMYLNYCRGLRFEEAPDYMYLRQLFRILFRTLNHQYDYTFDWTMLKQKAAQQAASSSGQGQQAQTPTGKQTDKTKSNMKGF
UniProt Q96SW2, whole entry: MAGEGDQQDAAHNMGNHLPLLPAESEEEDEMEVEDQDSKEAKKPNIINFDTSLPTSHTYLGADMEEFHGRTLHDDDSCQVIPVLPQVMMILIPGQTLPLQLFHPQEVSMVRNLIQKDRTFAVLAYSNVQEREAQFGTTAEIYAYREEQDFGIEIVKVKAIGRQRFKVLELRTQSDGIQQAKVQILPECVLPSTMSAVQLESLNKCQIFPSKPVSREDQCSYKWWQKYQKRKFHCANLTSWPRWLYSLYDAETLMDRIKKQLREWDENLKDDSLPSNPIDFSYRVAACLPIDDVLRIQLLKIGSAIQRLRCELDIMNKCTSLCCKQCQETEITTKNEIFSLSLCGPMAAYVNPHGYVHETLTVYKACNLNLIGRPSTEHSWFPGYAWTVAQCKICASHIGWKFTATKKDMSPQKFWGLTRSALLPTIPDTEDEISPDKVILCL
UniProt P15170, whole entry: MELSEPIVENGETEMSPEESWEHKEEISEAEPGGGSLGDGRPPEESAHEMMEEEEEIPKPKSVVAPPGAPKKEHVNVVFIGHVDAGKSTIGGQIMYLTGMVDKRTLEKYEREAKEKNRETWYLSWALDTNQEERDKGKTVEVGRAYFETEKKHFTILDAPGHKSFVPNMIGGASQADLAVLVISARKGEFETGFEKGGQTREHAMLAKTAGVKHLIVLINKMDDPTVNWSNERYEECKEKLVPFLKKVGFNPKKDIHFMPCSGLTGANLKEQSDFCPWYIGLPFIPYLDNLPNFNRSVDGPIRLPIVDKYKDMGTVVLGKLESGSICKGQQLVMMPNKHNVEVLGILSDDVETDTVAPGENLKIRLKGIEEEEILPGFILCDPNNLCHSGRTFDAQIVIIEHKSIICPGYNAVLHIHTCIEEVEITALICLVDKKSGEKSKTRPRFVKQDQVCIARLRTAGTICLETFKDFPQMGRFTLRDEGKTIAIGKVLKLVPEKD
UniProt Q16531, whole entry partner: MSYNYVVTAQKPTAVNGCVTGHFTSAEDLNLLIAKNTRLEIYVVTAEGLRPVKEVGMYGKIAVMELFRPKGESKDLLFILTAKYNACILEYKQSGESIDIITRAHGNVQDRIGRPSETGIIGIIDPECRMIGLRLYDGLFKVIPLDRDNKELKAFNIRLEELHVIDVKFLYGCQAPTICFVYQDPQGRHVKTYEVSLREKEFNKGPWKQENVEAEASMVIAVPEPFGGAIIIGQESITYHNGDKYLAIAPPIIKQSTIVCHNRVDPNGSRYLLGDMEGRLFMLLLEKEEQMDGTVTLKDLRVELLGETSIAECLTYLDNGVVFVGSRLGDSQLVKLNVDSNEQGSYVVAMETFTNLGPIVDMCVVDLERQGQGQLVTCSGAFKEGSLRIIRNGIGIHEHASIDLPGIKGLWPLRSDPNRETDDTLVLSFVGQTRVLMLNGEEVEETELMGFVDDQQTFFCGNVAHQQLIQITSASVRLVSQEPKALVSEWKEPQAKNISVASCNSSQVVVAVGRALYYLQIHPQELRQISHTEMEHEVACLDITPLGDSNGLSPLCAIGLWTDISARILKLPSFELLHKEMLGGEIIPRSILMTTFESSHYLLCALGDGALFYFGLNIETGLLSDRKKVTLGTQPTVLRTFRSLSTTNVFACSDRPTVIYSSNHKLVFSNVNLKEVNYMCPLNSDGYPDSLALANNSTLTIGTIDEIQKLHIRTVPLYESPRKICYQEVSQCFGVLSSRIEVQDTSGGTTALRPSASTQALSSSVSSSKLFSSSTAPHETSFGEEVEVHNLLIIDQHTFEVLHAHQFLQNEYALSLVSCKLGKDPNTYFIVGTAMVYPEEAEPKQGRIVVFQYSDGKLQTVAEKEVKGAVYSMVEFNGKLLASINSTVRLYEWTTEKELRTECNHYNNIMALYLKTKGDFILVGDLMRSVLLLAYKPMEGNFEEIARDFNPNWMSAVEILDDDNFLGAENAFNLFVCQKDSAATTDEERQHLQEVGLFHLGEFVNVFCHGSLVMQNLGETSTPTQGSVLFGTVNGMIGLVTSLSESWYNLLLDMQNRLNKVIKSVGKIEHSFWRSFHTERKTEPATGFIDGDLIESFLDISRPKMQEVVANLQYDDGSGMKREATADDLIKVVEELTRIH

Tests used:
[1] = biological target: CK1α (Homo sapiens, UniProt P48729+Q96SW2); assay: HiBiT degradation assay, CK1α, Procedure A; details: for DC50: read-out: CK1α DC50, six hours incubation; for CK1α Ymin: six hours incubation
[2] = biological target: GSPT1 (Homo sapiens, UniProt P15170+Q96SW2); assay: HiBiT degradation assay, GSPT1, Procedure A; details: for DC50: read-out: GSPT1 DC50, six hours incubation; for GSPT1 Ymin: six hours incubation

Structure (SMILES)	DC50 [1]	CK1α Ymin [1]	DC50 [2]	GSPT1 Ymin [2]
Cn1c(-c2ccc3c(c2)CN(C2CCC(=O)NC2=O)C3=O)cnc1C1CCCCC1 (stereo not drawn)	> 25 nM	E (E = >25-75% remaining)	< 25 nM	F (F = >75-100% remaining)
Cn1cnc(-c2ccc3c(c2)CN(C2CCC(=O)NC2=O)C3=O)c1-c1ccc(-c2cccnc2)cc1 (stereo not drawn)	< 25 nM	C (C = 0-10% remaining)	< 25 nM	E (E = >25-75% remaining)
Cn1cnc(-c2ccc3c(c2)CN(C2CCC(=O)NC2=O)C3=O)c1-c1ccc(C(F)(F)F)cc1 (stereo not drawn)	< 25 nM	E (E = >25-75% remaining)	< 25 nM	F (F = >75-100% remaining)
